Bounds are passed on as bounds.

The MIC is the smallest concentration in the dilution series that meets the test's criterion for growth inhibition. Low values mean inhibition by little substance, high ones a need for much substance.

The test system of this assay is Streptococcus pneumoniae 5979. The assay is described as follows: In vitro agar dilution MIC, organism code ZZ. The format is cell-based. Particulars: Table 1B, unit assumed. As to the method: Representative compounds of the present invention were assayed in vitro for antibacterial activity as follows: Twelve petri dishes containing successive aqueous dilutions of the test compound mixed with 10 mL of sterilized Brain Heart Infusion (BHI) agar (Difco 0418-01-5) were prepared. Each plate was inoculated with 1:100 (or 1:10 for slow-growing strains, such as Micrococcus and Streptococcus) dilutions of up to 32 different microorganisms, using a Steers replicator block. The inoculated plates were incubated at 35-37° C. for 20 to 24 hours. In addition, a control plate, using BHI agar containing no test compound, was prepared and incubated at the beginning and end of each test.
An additional plate containing a compound having known susceptibility patterns for the organisms being tested and belonging to the same antibiotic class as the test compound was also prepared and incubated as a further control, as well as to provide test-to-test comparability.
After incubation, each plate was visually inspected. The minimum inhibitory concentration (MIC) was defined as the lowest concentration of drug yielding no growth, a slight haze, or sparsely isolated colonies on the inoculum spot as compared to the growth control.

In the case of `CC[C@H]1OC(=O)[C@H](C)[C@@H](O[C@H]2C[C@@](C)(OC)[C@@H](O)[C@H](C)O2)[C@H](C)[C@@H](O[C@@H]2O[C@H](C)C[C@H](N(C)C)[C@H]2O)[C@](C)(O)C[C@@H](C)C(=O)[C@H](C)[C@@H](O)[C@]1(C)O` [Ery. A, Erythromycin A, reference compound], the MIC was greater than 128 µg/mL.
